Values of other authors in PMC6155412.

Target: FPR1 (Homo sapiens) (UniProt P21462)

Substance: CHIPS (from UniProt Q2FFF7)
- Kd: 35 nM
